# Laboratory results from PubChem BioAssay AID1224905 (ICCB-Longwood Screening Facility, Harvard Medical School, 2016).
# Protein sequences, listed by entry. Tags and fused reporters are not part of them.
# UniProt P08753, whole entry: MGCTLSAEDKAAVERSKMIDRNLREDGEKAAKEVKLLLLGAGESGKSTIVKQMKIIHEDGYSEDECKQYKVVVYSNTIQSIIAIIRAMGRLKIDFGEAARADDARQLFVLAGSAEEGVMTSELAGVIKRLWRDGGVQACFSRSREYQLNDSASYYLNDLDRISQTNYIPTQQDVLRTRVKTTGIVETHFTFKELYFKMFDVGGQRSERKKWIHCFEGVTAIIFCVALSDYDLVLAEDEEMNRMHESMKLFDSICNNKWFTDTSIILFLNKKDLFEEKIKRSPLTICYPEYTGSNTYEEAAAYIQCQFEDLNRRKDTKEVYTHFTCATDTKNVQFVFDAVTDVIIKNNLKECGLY
# UniProt Q3V6T2, whole entry partner: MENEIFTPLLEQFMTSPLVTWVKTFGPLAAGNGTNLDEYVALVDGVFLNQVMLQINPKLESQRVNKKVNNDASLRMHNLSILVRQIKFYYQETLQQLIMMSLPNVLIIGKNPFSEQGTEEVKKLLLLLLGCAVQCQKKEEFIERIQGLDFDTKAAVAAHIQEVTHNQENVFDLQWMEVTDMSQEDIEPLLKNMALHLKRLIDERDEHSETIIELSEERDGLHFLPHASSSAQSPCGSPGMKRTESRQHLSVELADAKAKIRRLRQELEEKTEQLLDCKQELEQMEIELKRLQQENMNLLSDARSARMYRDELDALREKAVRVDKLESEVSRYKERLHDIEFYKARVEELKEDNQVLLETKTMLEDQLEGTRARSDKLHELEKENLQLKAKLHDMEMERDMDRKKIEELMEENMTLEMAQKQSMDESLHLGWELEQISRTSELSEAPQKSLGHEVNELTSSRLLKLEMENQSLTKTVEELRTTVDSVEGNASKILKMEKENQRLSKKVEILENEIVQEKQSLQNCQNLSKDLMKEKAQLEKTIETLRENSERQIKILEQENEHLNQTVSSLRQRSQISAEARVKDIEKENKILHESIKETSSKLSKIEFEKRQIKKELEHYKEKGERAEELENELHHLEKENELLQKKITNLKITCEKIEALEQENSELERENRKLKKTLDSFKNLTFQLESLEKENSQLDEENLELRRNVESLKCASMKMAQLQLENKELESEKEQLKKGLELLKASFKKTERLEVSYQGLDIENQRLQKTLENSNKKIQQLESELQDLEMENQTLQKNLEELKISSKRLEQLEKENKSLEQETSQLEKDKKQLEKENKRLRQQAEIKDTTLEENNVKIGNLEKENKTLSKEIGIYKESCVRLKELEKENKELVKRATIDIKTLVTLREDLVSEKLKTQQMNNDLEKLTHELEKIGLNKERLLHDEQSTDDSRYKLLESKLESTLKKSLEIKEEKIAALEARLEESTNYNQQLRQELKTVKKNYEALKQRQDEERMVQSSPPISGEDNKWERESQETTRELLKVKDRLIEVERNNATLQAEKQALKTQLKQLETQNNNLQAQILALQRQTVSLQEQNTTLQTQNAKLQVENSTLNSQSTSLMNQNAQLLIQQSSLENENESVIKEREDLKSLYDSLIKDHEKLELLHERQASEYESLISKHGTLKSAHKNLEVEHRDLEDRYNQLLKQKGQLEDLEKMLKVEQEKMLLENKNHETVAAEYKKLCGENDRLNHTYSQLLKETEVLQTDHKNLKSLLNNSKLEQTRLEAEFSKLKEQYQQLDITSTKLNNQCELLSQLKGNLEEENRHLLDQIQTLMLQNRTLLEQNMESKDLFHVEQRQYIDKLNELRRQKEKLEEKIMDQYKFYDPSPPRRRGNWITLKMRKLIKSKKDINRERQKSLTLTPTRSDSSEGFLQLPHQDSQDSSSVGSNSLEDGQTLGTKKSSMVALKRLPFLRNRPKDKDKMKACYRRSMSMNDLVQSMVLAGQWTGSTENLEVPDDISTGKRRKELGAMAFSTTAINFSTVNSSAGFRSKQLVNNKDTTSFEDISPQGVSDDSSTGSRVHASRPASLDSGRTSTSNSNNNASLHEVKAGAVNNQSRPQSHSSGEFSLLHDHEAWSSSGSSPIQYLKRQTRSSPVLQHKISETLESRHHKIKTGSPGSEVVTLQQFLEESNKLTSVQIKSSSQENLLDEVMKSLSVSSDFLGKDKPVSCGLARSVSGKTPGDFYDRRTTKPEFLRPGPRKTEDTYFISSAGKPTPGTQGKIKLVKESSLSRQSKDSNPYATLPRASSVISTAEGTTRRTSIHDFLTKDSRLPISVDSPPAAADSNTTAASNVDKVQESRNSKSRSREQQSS
# Only a part is listed here, and it is no random draw. Some of these compounds have results that are not shown, active ones among them. Activity calls are given as the source filed them.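 How the source made its calls: active means mean replicate percent of control at or below 100 minus about 85%, very high polarization wells dropped (limit read from the data); inactive means the rest.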
# Target: Guanine nucleotide-binding protein G(i) subunit alpha-3 (Rattus norvegicus) (UniProt P08753)
# Experiment: inhibitors of GIV peptide binding to Galpha-i3, primary screen, biochemical, fluorescence polarization, FITC-GIV GBA peptide, rat Galphai3 (AID 1224905);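 further: lower values mean more displacement of the GIV peptide from Galpha-i3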
# Conditions: 90 min, hits give low values, scaled: aluminum fluoride 0%, vehicle 100%
row,Structure (SMILES),percent of control (FP)
1,CN(C)C1(CNC(=O)c2ccccc2[N+](=O)[O-])CCCCC1,inactive: 99.4%
2,Cc1cc(C)c2c(C)c(C(=O)NCC3(N(C)C)CCCCC3)oc2c1,inactive: 107%
3,CCCCOc1ccccc1C(=O)NCC1(N(C)C)CCCCC1,inactive: 102%
4,COc1ccc(OC)c(C=C(C#N)C#N)c1,inactive: 88.8%
5,Cc1c(C(=O)NCC2(N(C)C)CCCCC2)oc2ccccc12,inactive: 104%
6,CCOc1cccc(C(=O)NCC2(N(C)C)CCCCC2)c1,inactive: 100%
7,Cc1cc2oc(C(=O)NCC3(N(C)C)CCCCC3)c(C)c2cc1Cl,inactive: 103%
8,Cc1ccc2oc(C(=O)NCC3(N(C)C)CCCCC3)c(C)c2c1,inactive: 105%
9,CN(C)C1(CNC(=O)c2cccc(Cl)c2)CCCCC1,inactive: 103%
10,CN(C)C1(CNC(=O)c2ccccc2F)CCCCC1,inactive: 101%
11,COc1cccc(C(=O)NCC2(N3CCOCC3)CCCCC2)c1,inactive: 103%
12,CC(C)COc1ccc(C(=O)NCC2(N(C)C)CCCCC2)cc1,inactive: 102%
13,Cc1ccc2c(Cl)c(C(=O)NCC3(N(C)C)CCCCC3)sc2c1,inactive: 107%
14,COc1cc(C(=O)NCC2(N(C)C)CCCCC2)cc(OC)c1OC,inactive: 103%
15,Cc1cccc(C(=O)NCC2(N(C)C)CCCCC2)c1,inactive: 105%
16,CN1C2CCC1CC(OC(=O)C(O)(c1ccccc1)c1ccccc1)C2 (stereo not given),inactive: 98.8%
17,CC(C)Oc1ccc(C(=O)NCC2(N(C)C)CCCCC2)cc1,inactive: 101%
18,Cc1c(C(=O)NCC2(N(C)C)CCCCC2)oc2ccc(F)cc12,inactive: 105%
19,COc1ccc(C(=O)NCC2(N(C)C)CCCCC2)cc1Cl,inactive: 99.9%
20,Cc1ccc2c(C)c(C(=O)NCC3(N(C)C)CCCCC3)oc2c1,inactive: 107%
